Values quoted from earlier work as cited in patent US11077184B2 (priority 2011, dated 2021).

Details: human, in vivo; cited from earlier work

Substance: tripalmitoyl-S-glyceryl-cysteine [Pam3Cys]
- reported side effects: no reported side effects
